Values of other authors as cited in patent US12391660B2, “Heteroaromatic acetamide derivative, and preparation and use thereof” (Hangzhou Westan Pharmaceutical Technology Co., Ltd, priority 2019, dated 2025).

Test system: ovalbumine-induced mouse asthma model
Settings: cited from earlier work

SMILES: CC(C)c1ccc(NC(=O)Cn2cnc3c2c(=O)n(C)c(=O)n3C)cc1 [HC-030031]
- release of pro-inflammatory factors and neuropeptides: reduce
